From patent EP4840854A1, “PIPERIDINYL INDOLE DERIVATIVE, PREPARATION METHOD THEREFOR AND USE THEREOF” (dated 2026)
Read-outs that look alike come from different tables or passages of the source. Marks after values point to notes of the source that are not given here.

By UniProt entry, the sequences of proteins in these tests, tags left out. Residues count along the entry.
UniProt P00751, 260-764 limits assumed: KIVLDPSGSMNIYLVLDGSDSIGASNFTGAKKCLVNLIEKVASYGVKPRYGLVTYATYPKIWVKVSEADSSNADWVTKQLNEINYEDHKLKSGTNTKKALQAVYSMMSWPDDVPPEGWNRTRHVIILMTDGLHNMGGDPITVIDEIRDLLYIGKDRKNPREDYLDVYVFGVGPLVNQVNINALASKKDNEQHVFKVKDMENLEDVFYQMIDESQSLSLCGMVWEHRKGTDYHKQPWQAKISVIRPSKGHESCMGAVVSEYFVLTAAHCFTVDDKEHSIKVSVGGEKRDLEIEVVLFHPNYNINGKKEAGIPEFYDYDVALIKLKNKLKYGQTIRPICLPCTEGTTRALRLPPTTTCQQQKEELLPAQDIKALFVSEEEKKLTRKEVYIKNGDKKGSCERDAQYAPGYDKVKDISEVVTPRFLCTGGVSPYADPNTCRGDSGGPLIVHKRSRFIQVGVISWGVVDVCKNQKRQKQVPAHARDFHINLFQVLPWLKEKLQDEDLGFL
UniProt P00751, 26-764 limits assumed: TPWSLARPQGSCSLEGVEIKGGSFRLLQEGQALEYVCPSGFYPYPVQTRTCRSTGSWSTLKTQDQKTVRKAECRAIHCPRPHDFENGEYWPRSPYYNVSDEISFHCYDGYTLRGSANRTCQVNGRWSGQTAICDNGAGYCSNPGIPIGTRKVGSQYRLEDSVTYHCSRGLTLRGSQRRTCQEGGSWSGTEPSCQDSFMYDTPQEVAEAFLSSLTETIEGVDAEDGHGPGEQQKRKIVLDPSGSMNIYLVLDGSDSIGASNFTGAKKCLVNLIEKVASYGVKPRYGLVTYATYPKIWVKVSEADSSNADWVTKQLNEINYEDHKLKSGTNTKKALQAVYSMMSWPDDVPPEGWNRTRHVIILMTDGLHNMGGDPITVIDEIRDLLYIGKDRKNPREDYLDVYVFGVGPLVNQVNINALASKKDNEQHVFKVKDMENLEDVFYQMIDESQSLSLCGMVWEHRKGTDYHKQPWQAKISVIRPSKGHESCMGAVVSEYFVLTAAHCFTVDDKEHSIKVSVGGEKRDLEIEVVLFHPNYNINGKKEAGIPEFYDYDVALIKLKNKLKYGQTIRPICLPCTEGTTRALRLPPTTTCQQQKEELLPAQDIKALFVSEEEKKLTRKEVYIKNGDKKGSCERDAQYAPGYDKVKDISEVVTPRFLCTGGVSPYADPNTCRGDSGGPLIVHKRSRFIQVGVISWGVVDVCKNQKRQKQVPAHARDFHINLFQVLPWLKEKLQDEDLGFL
UniProt Q91132, 23-649 partner limits assumed: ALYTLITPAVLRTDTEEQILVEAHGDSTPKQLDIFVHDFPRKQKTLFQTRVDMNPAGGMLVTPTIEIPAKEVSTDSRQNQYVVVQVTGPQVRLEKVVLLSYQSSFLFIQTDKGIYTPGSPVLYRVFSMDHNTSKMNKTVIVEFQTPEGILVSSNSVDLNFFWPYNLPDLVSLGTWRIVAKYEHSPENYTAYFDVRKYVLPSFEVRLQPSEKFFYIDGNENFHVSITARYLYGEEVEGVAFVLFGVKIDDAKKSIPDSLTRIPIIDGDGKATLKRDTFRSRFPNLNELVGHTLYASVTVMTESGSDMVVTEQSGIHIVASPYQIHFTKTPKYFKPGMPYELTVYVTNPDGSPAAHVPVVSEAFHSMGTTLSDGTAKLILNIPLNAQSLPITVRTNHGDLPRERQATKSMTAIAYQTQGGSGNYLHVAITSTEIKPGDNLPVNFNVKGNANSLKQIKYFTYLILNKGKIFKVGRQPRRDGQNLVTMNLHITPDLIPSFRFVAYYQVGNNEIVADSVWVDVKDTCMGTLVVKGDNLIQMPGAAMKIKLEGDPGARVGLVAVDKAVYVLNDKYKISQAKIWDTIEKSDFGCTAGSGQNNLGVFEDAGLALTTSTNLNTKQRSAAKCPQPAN
UniProt Q91132, 733-984 partner limits assumed: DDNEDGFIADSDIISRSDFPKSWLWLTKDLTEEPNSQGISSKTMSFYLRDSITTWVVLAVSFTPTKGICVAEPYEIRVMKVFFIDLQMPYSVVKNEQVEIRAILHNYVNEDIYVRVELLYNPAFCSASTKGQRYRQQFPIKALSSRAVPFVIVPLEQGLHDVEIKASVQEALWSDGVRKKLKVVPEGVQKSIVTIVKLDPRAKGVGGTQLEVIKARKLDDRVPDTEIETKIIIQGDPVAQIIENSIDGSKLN
UniProt Q91132, 1264-1642 partner limits assumed: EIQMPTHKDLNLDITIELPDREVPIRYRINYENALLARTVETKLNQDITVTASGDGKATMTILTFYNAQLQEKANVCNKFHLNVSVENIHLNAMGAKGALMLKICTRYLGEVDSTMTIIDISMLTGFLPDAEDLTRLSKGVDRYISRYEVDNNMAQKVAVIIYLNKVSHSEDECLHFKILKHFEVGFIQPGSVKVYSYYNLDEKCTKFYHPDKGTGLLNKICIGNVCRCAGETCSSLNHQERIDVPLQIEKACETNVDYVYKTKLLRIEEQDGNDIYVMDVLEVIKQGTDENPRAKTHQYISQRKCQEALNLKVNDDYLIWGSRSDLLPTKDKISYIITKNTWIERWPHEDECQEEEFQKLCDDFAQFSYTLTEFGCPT

Assays:
[1] = system: alternative complement pathway; assay: LPS-induced complement activation assay in mice (plasma C3b); settings: for plasma C3b levels compared with the model control group: result in words
[2] = Stability test (acid stress, chiral and chemical purity); settings: change after 4 N HCl at 50°C for 12 h
[3] = system: red blood cells; assay: PNH-like hemolysis assay (CD55/CD59-blocked red blood cells in acidified serum); settings: for IC50: read-out: Hemolysis Inhibition Rate (%), hemolysis inhibition IC50, acidified serum pH 6.4, 37°C, 6 h
[4] = Mouse pharmacokinetic study; settings: BALB/c mice, 1 mg/kg; for F: bioavailability
[5] = Rat pharmacokinetic study; settings: SD rats, po (oral gavage), 1 mg/kg; for F: bioavailability
[6] = molecular target: CVF-Bb (Homo sapiens, UniProt P00751); assay: CVF-Bb assay (C3a generation by the CVF-Bb C3 convertase); settings: read-out: CVF-Bb assay (IC50)
[7] = molecular target: complement factor B (Homo sapiens, UniProt P00751); assay: Affinity assay (Octet biosensor, NTA sensors with immobilised CFB); settings: read-out: Affinity for factor B
[8] = system: rabbit erythrocytes; assay: Rabbit erythrocyte hemolysis assay (rat serum with EGTA); settings: read-out: Rabbit Hemolysis Inhibition Rate(IC50); 2% rabbit erythrocytes, rat serum with EGTA/MgCl2, 37°C, 3 h
[9] = PK study in beagle dogs; settings: male beagle dogs, po (oral gavage), 1 mg/kg
[10] = molecular target: alternative complement pathway (Homo sapiens, UniProt P00751); assay: AP deposition assay (WIESLAB Complement System Alternative Pathway, C5b-9 readout in human serum)
[11] = 60 mg/kg oral gavage about 1.5 h after LPS 2.5 mg/kg i.p., plasma about 6 h after administration
[12] = 120 mg/kg oral gavage about 1.5 h after LPS 2.5 mg/kg i.p., plasma about 6 h after administration
[13] = read-out: AP complement deposition assay, Table 11

For CCO[C@H]1CCN(Cc2c(OC)cc(C)c3[nH]ccc23)[C@H](c2ccc(C(=O)O)cc2)C1, the “C3b content” value [1, 11] was 100.01 ± 14.44 ng/mL, the “plasma C3b levels compared with the model control group” value ([1]; 60 mg/kg oral gavage) was “decreasing trend” and the “C3b content” value [1, 12] was 89.89 ± 16.73 ng/mL. The “plasma C3b levels compared with the model control group” value ([1]; 120 mg/kg oral gavage) was “significantly reduced”, the “Chemical Purity” value [2] was -6.48% and the “Chiral Purity” value [2] was “Unchanged”. It also gave an IC50 [3] of 165 nM, an AUCINF obs ([4]; iv) of 2216.50 ng·h/mL and an AUClast ([4]; iv) of 2132.34 ng·h/mL. For the same compound, the “Cl F obs” value ([4]; iv) was 7.5193 mL/min/kg, the MRTINF obs ([4]; iv) was 5.44 h and the MRTlast ([4]; iv) was 4.38 h. For the same compound, the T1/2 ([4]; iv) was 5.77 h, the “VZ F obs” value ([4]; iv) was 3.75547 L/kg and the AUCINF obs ([4]; po (oral gavage)) was 2708.24 ng·h/mL. For the same compound, the AUClast ([4]; po (oral gavage)) was 2609.90 ng·h/mL, the “Cl F obs” value ([4]; po (oral gavage)) was 6.154 mL/min/kg and the MRTINF obs ([4]; po (oral gavage)) was 7.26 h. It also gave an MRTlast ([4]; po (oral gavage)) of 6.35 h, a T1/2 ([4]; po (oral gavage)) of 5.22 h and a Tmax ([4]; po (oral gavage)) of 0.500 h. The “VZ F obs” value ([4]; po (oral gavage)) was 2.77822 L/kg, the F ([4]; po (oral gavage)) was 122.19% and the “AUCINF _obs” value [5] was 2170.66 ng·h/mL. For the same compound, the AUClast [5] was 2028.57 ng·h/mL, the Cl_F_obs [5] was 8.2385 mL/min/kg and the “MRTINF _obs” value [5] was 7.11 h. It also gave an MRTlast [5] of 5.59 h, a T1/2 [5] of 4.14 h and a Tmax [5] of 0.79 h. It also gave a Vz_F_obs [5] of 3.0164 L/kg and an F [5] of 102.38%.
With COc1cc(C)c2[nH]ccc2c1CN1CCCCC1c1ccc(C(=O)O)cc1C (centres unmarked) the IC50 [3] was 624 nM, the AUCINF obs ([4]; iv) was 881.92 ng·h/mL and the AUClast ([4]; iv) was 877.37 ng·h/mL. The C0/Cmax ([4]; iv) was 806.67 ng/mL, the “Cl F obs” value ([4]; iv) was 18.8982 mL/min/kg and the MRTINF obs ([4]; iv) was 1.91 h. The MRTlast ([4]; iv) was 1.85 h, the T1/2 ([4]; iv) was 1.66 h and the “VZ F obs” value ([4]; iv) was 2.71914 L/kg. For the same compound, the “AUCINF _obs as percentage of that in the Compound I oral gavage group” value ([4]; oral gavage) was “approximately 22.7%”, the “Cmax as percentage of that in the Compound I oral gavage group” value ([4]; oral gavage) was “approximately 44.8%” and the AUCINF obs ([4]; po (oral gavage)) was 943.54 ng·h/mL. For the same compound, the AUClast ([4]; po (oral gavage)) was 937.46 ng·h/mL, the C0/Cmax ([4]; po (oral gavage)) was 349.90 ng/mL and the “Cl F obs” value ([4]; po (oral gavage)) was 17.6638 mL/min/kg. For the same compound, the MRTINF obs ([4]; po (oral gavage)) was 2.70 h, the MRTlast ([4]; po (oral gavage)) was 2.62 h and the T1/2 ([4]; po (oral gavage)) was 1.73 h. For the same compound, the Tmax ([4]; po (oral gavage)) was 0.50 h, the “VZ F obs” value ([4]; po (oral gavage)) was 2.65276 L/kg and the F ([4]; po (oral gavage)) was 106.99%. For the same compound, the IC50 ([6]; Table 2, Test Example 2) was 50.9 nM and the Kd ([7]; Table 1, Test Example 1) was 19 nM.
In the case of CCO[C@@H]1CCN(Cc2c(OC)cc(C)c3[nH]ccc23)[C@@H](c2ccc(C(=O)O)cc2C)C1, the IC50 [8] is reported as > 1000 nM.
In the case of [2H]c1[nH]c2c(C)cc(OC)c(CN3CC[C@H](OCC)C[C@H]3c3ccc(C(=O)O)cc3C)c2c1[2H], the “Chemical Purity” value [2] is reported as -4.25% and the “Chiral Purity” value [2] is reported as -2.33%.
In the case of [2H][C@]1(OCC)CCN(Cc2c(OC)cc(C)c3[nH]ccc23)[C@H](c2ccc(C(=O)O)cc2C)C1, the “Chemical Purity” value [2] is reported as -4.55% and the “Chiral Purity” value [2] is reported as -0.33%.
In the case of [2H]c1c(OC)c(CN2CC[C@H](OCC)C[C@H]2c2ccc(C(=O)O)cc2C)c2cc[nH]c2c1C, the “Chemical Purity” value [2] is reported as -0.29% and the “Chiral Purity” value [2] is reported as “Unchanged”.
For [2H]c1c([2H])c([C@@H]2C[C@@H](OCC)CCN2Cc2c(OC)cc(C)c3[nH]ccc23)c(C)c([2H])c1C(=O)O, the “Chemical Purity” value [2] was “Unchanged” and the “Chiral Purity” value [2] was -0.41%.
For [2H]C([2H])([2H])C([2H])([2H])O[C@H]1CCN(Cc2c(OC)cc(C)c3[nH]ccc23)[C@H](c2ccc(C(=O)O)cc2C)C1, the IC50 [8] was 568 nM, the “AUCINF _obs” value [9] was 8478.75 ng·h/mL and the AUClast [9] was 8434.01 ng·h/mL. For the same compound, the C0/Cmax [9] was 1249.67 ng/mL, the Cl_F_obs [9] was 2.0262 mL/min/kg and the “MRTINF _obs” value [9] was 7.87 h. The MRTlast [9] was 7.63 h, the T1/2 [9] was 6.46 h and the Tmax [9] was 0.83 h. For the same compound, the Vz_F_obs [9] was 1.11549 L/kg, the F ([9]; relative oral bioavailability) was 98.96% and the “Chemical Purity” value [2] was “Unchanged”. The “Chiral Purity” value [2] was -0.55%, the IC50 [10, 13] was 55.5 nM and the IC50 ([6]; Table 10, Test Example 10) was 16 nM. The Kd ([7]; Table 9, Test Example 9) was 4.46 nM.
With CCO[C@H]1CCN(Cc2c(OC)cc(C)c3[nH]ccc23)[C@H](c2ccc(C(=O)O)cc2C)C1 the IC50 [8] was 548 nM, the “AUCINF _obs” value [9] was 8568.02 ng·h/mL and the AUClast [9] was 8509.98 ng·h/mL. For the same compound, the C0/Cmax [9] was 1473.27 ng/mL, the Cl_F_obs [9] was 2.327 mL/min/kg and the “MRTINF _obs” value [9] was 6.41 h. The MRTlast [9] was 6.15 h, the T1/2 [9] was 5.92 h and the Tmax [9] was 0.42 h. The Vz_F_obs [9] was 1.03781 L/kg, the “C3b content” value [1, 11] was 77.19 ± 8.93 ng/mL and the “plasma C3b levels compared with the model control group” value ([1]; 60 mg/kg oral gavage) was “significantly reduced”. For the same compound, the “C3b content (ng/ml)” value [1, 12] was 73.16±5.36**^$ ng/ml, the “plasma C3b levels compared with the model control group” value ([1]; 120 mg/kg oral gavage) was “significantly reduced” and the “Chemical Purity” value [2] was “Unchanged”. For the same compound, the “Chiral Purity” value [2] was -0.41%, the IC50 [3] was 89.8 nM and the “hemolysis inhibition IC50 value, fold better than that of comparative compound D1” value ([3]; relative to D1) was “approximately 2 fold”. For the same compound, the AUCINF obs ([4]; iv) was 3982.96 ng·h/mL, the AUClast ([4]; iv) was 3975.81 ng·h/mL and the C0/Cmax ([4]; iv) was 1533.65 ng/mL. The “Cl F obs” value ([4]; iv) was 4.1845 mL/min/kg, the MRTINF obs ([4]; iv) was 3.51 h and the MRTlast ([4]; iv) was 3.47 h. The T1/2 ([4]; iv) was 2.61 h, the “VZ F obs” value ([4]; iv) was 0.944 L/kg and the AUCINF obs ([4]; po (oral gavage)) was 4146.24 ng·h/mL. For the same compound, the AUClast ([4]; po (oral gavage)) was 4134.29 ng·h/mL, the C0/Cmax ([4]; po (oral gavage)) was 780.43 ng/mL and the “Cl F obs” value ([4]; po (oral gavage)) was 4.0197 mL/min/kg. The MRTINF obs ([4]; po (oral gavage)) was 4.61 h, the MRTlast ([4]; po (oral gavage)) was 4.54 h and the T1/2 ([4]; po (oral gavage)) was 2.83 h. The Tmax ([4]; po (oral gavage)) was 0.250 h, the “VZ F obs” value ([4]; po (oral gavage)) was 0.98341 L/kg and the F ([4]; po (oral gavage)) was 104.10%. The IC50 ([10]; read-out: AP complement deposition assay, Table 3) was 58.5 nM, the IC50 [10, 13] was 54.9 nM and the IC50 ([6]; Table 2, Test Example 2) was 11.2 nM. For the same compound, the IC50 ([6]; Table 10, Test Example 10) was 12.8 nM, the “AUCINF _obs” value [5] was 2947.03 ng·h/mL and the AUClast [5] was 2890.13 ng·h/mL. For the same compound, the C0/Cmax [5] was 545.29 ng/mL, the Cl_F_obs [5] was 5.9955 mL/min/kg and the “MRTINF _obs” value [5] was 5.13 h. The MRTlast [5] was 4.74 h, the T1/2 [5] was 3.49 h and the Tmax [5] was 0.88 h. The Vz_F_obs [5] was 1.71948 L/kg, the F [5] was 136.82% and the Kd ([7]; Table 9, Test Example 9) was 5.63 nM.
